Publication PMC9012344 (Drug Design, Development and Therapy, 2022)

How the values were obtained:
Format in all cases: cell-based, Human
Conditions in all cases: at 5 μM
H460 cells = assay: FITC Annexin V/PI staining assay for cell apoptosis, H460
HCT116 cells = assay: FITC Annexin V/PI staining assay for cell apoptosis, HCT116
MDA-MB-468 cells = assay: FITC Annexin V/PI staining assay for cell apoptosis, MDA-MB-468

O=C(CCCCCCC(=O)Nc1ccccc1)NO [Vorinostat]
apoptosis of H460 cells (H460 cells): about 20% | proportion of apoptosis, HCT116 (HCT116 cells): 64.72% | proportion of apoptosis, MDA-MB-468 (MDA-MB-468 cells): 49.19%
